Laboratory results: paper PMC3326565 (2011)
Residue numbers refer to the chain shown, from its start. Blank lines part the entries; values can stand above or below the binder they belong to.

Biological target: T1, human CD64, soluble monomeric extracellular domain (human, UniProt P12314 16-292)
T1 chain: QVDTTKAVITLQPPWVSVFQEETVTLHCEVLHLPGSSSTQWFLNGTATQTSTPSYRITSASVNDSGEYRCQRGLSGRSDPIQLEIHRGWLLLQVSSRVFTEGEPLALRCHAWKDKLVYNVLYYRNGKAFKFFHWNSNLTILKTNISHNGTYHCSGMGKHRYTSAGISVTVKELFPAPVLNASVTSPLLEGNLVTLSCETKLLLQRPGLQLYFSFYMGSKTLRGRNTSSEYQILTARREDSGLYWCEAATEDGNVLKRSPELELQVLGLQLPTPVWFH
Assay: SPR

- Kd: 0.5 nM
B1: ch4D5 (chimeric anti-HER2 monoclonal antibody, wild-type human IgG1 Fc domain) (antibody)
chain 1: QVQLQQSGPELVKPGASLKLSCTASGFNIKDTYIHWVKQRPEQGLEWIGRIYPTNGYTRYDPKFQDKATITADTSSNTAYLQVSRLTSEDTAVYYCSRWGGDGFYAMDYWGQGASVTVSS
chain 2: DIVMTQSHKFMSTSVGDRVSITCKASQDVNTAVAWYQQKPGHSPKLLIYSASFRYTGVPDRFTGNRSGTDFTFTISSVQAADLAVYYCQQHYTTPPTFGGGTKLEIK

- Kd: 1.2 nM
B2: ch4D5-0264 (chimeric anti-HER2 monoclonal antibody that contains the optimized Fc domain MGFc0264) (antibody)
chain 1: B1 chain 1
chain 2: B1 chain 2 with N65S, A81E, L104V
